Columns and labels:
Format in all cases: cell-based
Parameters in all cases: concentration or dose not given beside the values
Conditions in all cases: concentration not given here
Histamine H1 receptor = Histamine H1 receptor (Homo sapiens, UniProt P35367); test: Displacement of [3H]Pyrilamine from human H1 receptor expressed in HEK cells by radioligand binding assay relative to control
Histamine H2 receptor = Histamine H2 receptor (Homo sapiens, UniProt P25021); test: Displacement of [3H]Cimetidine from human H2 receptor expressed in HEK cells by radioligand binding assay relative to control
[1] = target: 5-hydroxytryptamine receptor 5A (Homo sapiens, UniProt P47898); test: Displacement of [3H]LSD from human 5-HT5A receptor expressed in Flp-In CHO cells by radioligand binding assay relative to control
[2] = target: 5-hydroxytryptamine receptor 2B (Homo sapiens, UniProt P41595); test: Displacement of [3H]LSD from human 5-HT2B receptor expressed in HEK cells by radioligand binding assay relative to control
[3] = target: Delta-type opioid receptor (Homo sapiens, UniProt P41143); test: Displacement of [3H]DADLE from human DOR expressed in HEK cells by radioligand binding assay relative to control
[4] = target: 5-hydroxytryptamine receptor 1D (Homo sapiens, UniProt P28221); test: Displacement of [3H]5-CT from human 5-HT1D receptor expressed in HEK293T cells by radioligand binding assay relative to control

Sequences of proteins named here, by UniProt entry; tags and fusion partners are left off. A change or cut given only in a name is not applied to a line headed by its entry.
UniProt P35367, whole entry: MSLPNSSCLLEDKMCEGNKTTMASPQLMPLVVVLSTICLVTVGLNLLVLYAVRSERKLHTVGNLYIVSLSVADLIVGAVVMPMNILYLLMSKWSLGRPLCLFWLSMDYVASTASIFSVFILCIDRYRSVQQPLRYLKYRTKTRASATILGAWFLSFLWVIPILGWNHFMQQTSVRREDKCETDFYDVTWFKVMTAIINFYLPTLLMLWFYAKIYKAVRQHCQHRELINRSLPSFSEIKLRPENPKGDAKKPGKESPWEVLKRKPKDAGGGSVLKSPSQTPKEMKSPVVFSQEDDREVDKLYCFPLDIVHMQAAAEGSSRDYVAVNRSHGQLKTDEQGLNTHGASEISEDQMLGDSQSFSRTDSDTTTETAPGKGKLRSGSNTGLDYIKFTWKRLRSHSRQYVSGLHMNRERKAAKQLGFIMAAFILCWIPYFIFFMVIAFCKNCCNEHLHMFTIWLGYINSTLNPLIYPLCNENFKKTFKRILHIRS
UniProt P25021, whole entry: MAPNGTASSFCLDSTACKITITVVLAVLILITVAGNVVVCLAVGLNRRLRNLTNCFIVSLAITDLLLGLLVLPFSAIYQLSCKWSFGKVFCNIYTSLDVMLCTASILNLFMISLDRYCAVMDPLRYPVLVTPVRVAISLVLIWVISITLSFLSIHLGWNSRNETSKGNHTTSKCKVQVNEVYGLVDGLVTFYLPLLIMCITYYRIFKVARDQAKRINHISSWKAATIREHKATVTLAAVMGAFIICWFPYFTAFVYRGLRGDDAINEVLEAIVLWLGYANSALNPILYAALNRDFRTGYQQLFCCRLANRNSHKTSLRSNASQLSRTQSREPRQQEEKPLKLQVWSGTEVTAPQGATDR
UniProt P47898, whole entry: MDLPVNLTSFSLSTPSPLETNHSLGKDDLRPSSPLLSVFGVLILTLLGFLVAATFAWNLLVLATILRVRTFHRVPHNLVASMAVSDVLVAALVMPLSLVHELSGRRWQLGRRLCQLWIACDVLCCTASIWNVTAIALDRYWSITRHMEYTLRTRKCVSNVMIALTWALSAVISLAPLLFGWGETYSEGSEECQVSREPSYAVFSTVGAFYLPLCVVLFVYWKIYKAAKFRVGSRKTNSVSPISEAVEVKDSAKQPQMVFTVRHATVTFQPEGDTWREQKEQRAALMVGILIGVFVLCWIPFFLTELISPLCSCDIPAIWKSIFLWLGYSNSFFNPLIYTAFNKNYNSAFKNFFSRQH
UniProt P41595, whole entry: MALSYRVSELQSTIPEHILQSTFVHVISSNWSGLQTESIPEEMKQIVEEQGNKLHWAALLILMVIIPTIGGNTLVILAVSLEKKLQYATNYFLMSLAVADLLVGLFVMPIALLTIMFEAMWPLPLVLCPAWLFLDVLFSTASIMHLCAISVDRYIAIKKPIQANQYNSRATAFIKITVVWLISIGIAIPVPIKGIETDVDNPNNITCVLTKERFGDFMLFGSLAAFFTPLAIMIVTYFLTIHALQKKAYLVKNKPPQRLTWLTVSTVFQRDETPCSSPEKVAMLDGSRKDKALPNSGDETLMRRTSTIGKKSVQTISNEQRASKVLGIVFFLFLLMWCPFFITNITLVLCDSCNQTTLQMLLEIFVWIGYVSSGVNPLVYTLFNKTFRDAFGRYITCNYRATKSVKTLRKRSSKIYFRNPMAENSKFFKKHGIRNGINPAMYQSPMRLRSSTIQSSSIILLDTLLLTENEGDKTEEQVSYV
UniProt P41143, whole entry: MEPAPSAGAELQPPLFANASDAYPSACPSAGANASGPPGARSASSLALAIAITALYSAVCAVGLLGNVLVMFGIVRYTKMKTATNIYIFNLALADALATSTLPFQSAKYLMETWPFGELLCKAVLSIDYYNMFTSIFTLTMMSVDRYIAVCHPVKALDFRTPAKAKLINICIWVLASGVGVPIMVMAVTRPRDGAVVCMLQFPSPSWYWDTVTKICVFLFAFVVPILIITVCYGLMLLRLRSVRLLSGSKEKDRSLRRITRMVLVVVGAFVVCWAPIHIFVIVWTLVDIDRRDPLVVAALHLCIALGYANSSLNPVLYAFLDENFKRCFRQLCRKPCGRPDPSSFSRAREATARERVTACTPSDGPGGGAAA
UniProt P28221: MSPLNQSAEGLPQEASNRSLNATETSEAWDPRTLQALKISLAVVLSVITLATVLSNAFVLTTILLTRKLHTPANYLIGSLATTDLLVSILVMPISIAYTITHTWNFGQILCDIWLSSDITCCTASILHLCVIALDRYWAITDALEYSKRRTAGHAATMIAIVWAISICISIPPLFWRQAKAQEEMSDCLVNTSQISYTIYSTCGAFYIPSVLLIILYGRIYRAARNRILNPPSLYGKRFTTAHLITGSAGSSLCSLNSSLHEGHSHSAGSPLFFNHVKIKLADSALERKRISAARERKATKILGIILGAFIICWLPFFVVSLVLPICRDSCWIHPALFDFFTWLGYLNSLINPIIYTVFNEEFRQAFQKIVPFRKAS

In the case of `OC1(c2ccc(Cl)c(C(F)(F)F)c2)CCN(CCCCN(c2ccc(F)cc2)c2ccc(F)cc2)CC1`, the inhibition (Histamine H1 receptor) is reported as 37.5% and the inhibition (Histamine H2 receptor) is reported as 16.6%.
`OC1(c2ccc(Cl)c(C(F)(F)F)c2)CCN(CCCC(c2ccccc2)c2ccccc2)CC1` gave an inhibition [1] of 31%.
`OC1(c2ccc(Cl)c(C(F)(F)F)c2)CCN(CCCCCc2ccc(F)cc2)CC1` gave an inhibition [2] of 25% and an inhibition [3] of 49.2%.
For `COc1ccc(N(CCCCN2CCC(O)(c3ccc(Cl)c(C(F)(F)F)c3)CC2)c2ccc(OC)cc2)cc1`, the inhibition (Histamine H2 receptor) was 15.3%.
`OC1(c2ccc(Cl)c(C(F)(F)F)c2)CCN(CCCC=C(c2ccc(F)cc2)c2ccc(F)cc2)CC1` gave an inhibition [4] of 50%.

Source: ChEMBL document CHEMBL4257579, “Analogs of penfluridol as chemotherapeutic agents with reduced central nervous system activity” (Bioorg Med Chem Lett, 2018)
